According to US20100272750A1:

Key:
Test in all cases: 125I-probe competition, purified HLA
HLA A3101 (human) = target: HLA A3101 (human)
HLA A6801 (human) = target: HLA A6801 (human)
HLA A2402 (human) = target: HLA A2402 (human)

MVMLMLVRFK (modifications not checked) [HPV31.E1.253]
IC50 (HLA A3101 (human)): 53 nM

ISFAGIVTK (modifications not checked) [HPV31.E2.205]
IC50 (HLA A6801 (human)): 16 nM

GYNTFYIEF (modifications not checked) [HPV18.E2.168]
IC50 (HLA A2402 (human)): 16 nM
